Earlier results, collected in paper PMC4532868, “Beneficial Effects of the mTOR Inhibitor Everolimus in Patients with Advanced Medullary Thyroid Carcinoma: Subgroup Results of a Phase II Trial” (International Journal of Endocrinology, 2015).

Test system: EGFR P848L
Set-up: method as in PMID 17877814, PMID 22848293
Details: nonsmall cell lung carcinoma; cited from earlier work

SMILES: COc1cc2ncnc(Nc3ccc(F)c(Cl)c3)c2cc1OCCCN1CCOCC1 [gefitinib]
- Sensitivity of EGFR P848L mutation to treatment: insensitive
